The list is not random: actives were taken first. Their share in the collection is about 0.51%.
MmCpn inh: blocks the Methanococcus maripaludis chaperonin Mm-Cpn. purified Mm-Cpn ATPase, ADP Transcreener TR-FRET. AID 504842. actives 0.031% (n = 330,000). Potency, µM (top dose mostly 76.9 µM), for the others: top-dose activity, negative = inhibition, most hits filed as inhibitors; active = well fitted curve in the direction sought with a large enough effect; inconclusive = small, poorly fitted or top-dose-only effect, or another doubt; inactive = no such curve, though single readings can be large; an effect the other way counts as inactive or inconclusive; note: potency is the fitted concentration of half-maximal effect; % is set by controls: 0 for no effect and ±100 for the full control effect; nearly all actives have a fitted effect of over 80% in size
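Reaction buffer contained 30 mM Tris pH 7.4, 100 mM KCl, 5 mM MgCl2 and 1 mM DTT. Mm-CPN (25 nM final) hydrolysed 10 uM ATP over 30 min at 37°C; ADP was read by HTRF.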
Rango dissoc inh: inhibitors of RanGTP-induced Rango-importin beta complex dissociation; O95149+P62826; Biochemical FRET Rango-importin beta, RanGTP-induced dissociation; AID 540253; Potency, µM (series often up to 46.1 µM), without a hit: top-dose activity change, negative = inhibition; actives 0.071% (n = 340,000); note: potency is the fitted concentration of half-maximal effect; % of control where 0% means no effect; nearly all actives have a fitted effect of over 45% in size
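Compounds preincubate 5 min with complex of recombinant Rango and importin beta in PBS with 1 mM DTT. Ran (0.6 uM) loaded with 2 mM GTP plus 0.2 uM RCC1 starts dissociation; FRET is recorded 45 min later.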
Rango-impB inh: Rango-importin beta binding inhibition. Q14974. Rango CFP/YFP FRET sensor + importin beta, 45 min. Potency, µM (top dose mostly 92.2 µM), for inactives: at the top dose inhibition of complex formation. actives 0.031% (n = 340,000). AID 540263;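 note: potency is the fitted concentration of half-maximal effect; 0% = DMSO wells and 100% = buffer wells lacking importin beta; nearly all actives have a fitted effect of over 15% in size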
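FRET biosensor (snurportin 1 IBB flanked by EYFP and cerulean), 50 nM, with compound 5 min, then 0.125 microM importin beta in PBS, 1 mM DTT, 0.02% Tween-20, 0.1% BSA. CFP/YFP ratio read after 45 min at room temperature; pre-read flags interference.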
CCT chaperon mod: changes cytosolic chaperonin activity | purified chaperonin ATPase assay, HTRF ADP detection, 30 min | activity change, % (no concentration beside the values), hits read low | actives 0.3% (n = 360,000) | AID 651819; in the data active = activity change below about -30%; note: % is set by controls: 0 for no effect and ±100 for the full control effect
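We incubate TRiC, 40 or 20 nM final, with library compounds at 76 uM and 10 uM ATP for 30 min at 37 °C. ADP formed is detected with Transcreener HTRF reagents after 30 min at room temperature.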
Integrin act MD: activates integrin-mediated alleviation for muscular dystrophy | alpha7betagal myoblasts, beta-gal FDG fluorescence, 48 h | Potency, µM (series often up to 38.3 µM), for the others: top-dose activation, actives largely listed as activators | actives 0.064% (n = 350,000); active = well fitted curve in the direction sought with a large enough effect; inconclusive = small, poorly fitted or top-dose-only effect, or another doubt; inactive = no such curve, though single readings can be large; an effect the other way counts as inactive or inconclusive;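 note: potency is the fitted concentration of half-maximal effect; 100% = response of the positive control SU9516; nearly all actives have a fitted effect of over 60% in size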
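Alpha7betagal+/- myoblasts (passage 13) were plated 16-24 hr, then exposed to compounds (1:260 dilution of DMSO stock) for 48 hours at 37C. After MPER lysis, β-galactosidase reporter activity was read as FDG fluorescence (ex 480/em 540) after 30 minutes.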
Starred values were filed as active, the others as inactive; u = inconclusive; x = not tested or not shown. Unless noted, calls come from the whole dose curve.

Compound | Rango-impB inh | MmCpn inh | Rango dissoc inh | CCT chaperon mod | Integrin act MD
CN(C)CCNc1ncnc2sc(-c3ccccc3)cc12 | -2% | -2% | -6% | -4 | 10µM*
CNc1ncnc2sc(-c3ccccc3)cc12 | -2% | -2% | -11% | 0 | 20%
Cc1cccc(NC(=O)c2ccc3nccnc3c2)n1 | 0% | 2% | 15% | -50* | 21%
Cc1cccc(NC(=O)c2cccc(NC(=O)c3ccccc3)c2)n1 | -3% | 2% | u | 1 | -5%
Cc1nc2c(OCc3ccc(C#N)cc3)cccn2c1N(C)C(=O)CCC1CCCC1 | x | x | x | -2 | x
CCOc1ccc(Nc2nc(N)nc(CN(C)C3CCCCC3)n2)cc1 | 58µM* | -2% | 1% | -1 | 25%
Cn1c(=O)c2c(nc(Sc3ncnn3CC(=O)NC3CCCCC3)n2C)n(C)c1=O | 3% | -4% | 0% | 1 | 11µM*
NC(=O)C1CCN(c2nc(-c3cccc4ccccc34)cs2)CC1 | x | -4% | x | x | x
COc1cc(/C=C2/C(=N)N3C(SC)=NSC3=NC2=O)ccc1OC(=O)c1ccco1 | u | 1% | u | -4 | 4µM*
COc1cc(/C=C2/C(=N)N3C(=NC2=O)SN=C3S(=O)(=O)C(C)C)ccc1OC(=O)c1ccco1 | u | -15% | 8.2µM* | 2 | -15%
CN(C)C(=O)c1ccc(SC(=S)NCc2ccccc2)cc1 | x | x | x | 0 | x
C=CCOc1ccc(/C=C(\C#N)C(=O)Nc2ccccn2)cc1 | u | 2% | 26µM* | 3 | 28%

5 of the entries above in order of their number in MmCpn inh, descending.
structure	MmCpn inh
Cc1cccc(NC(=O)c2cccc(NC(=O)c3ccccc3)c2)n1	2%
COc1cc(/C=C2/C(=N)N3C(SC)=NSC3=NC2=O)ccc1OC(=O)c1ccco1	1%
CCOc1ccc(Nc2nc(N)nc(CN(C)C3CCCCC3)n2)cc1	-2%
NC(=O)C1CCN(c2nc(-c3cccc4ccccc34)cs2)CC1	-4%
COc1cc(/C=C2/C(=N)N3C(=NC2=O)SN=C3S(=O)(=O)C(C)C)ccc1OC(=O)c1ccco1	-15%

Back to the main list with the 2 entries that preceded the break.
Compound | Rango-impB inh | MmCpn inh | Rango dissoc inh | CCT chaperon mod | Integrin act MD
CN(C)C(=O)c1ccc(SC(=S)NCc2ccccc2)cc1 | x | x | x | 0 | x
C=CCOc1ccc(/C=C(\C#N)C(=O)Nc2ccccn2)cc1 | u | 2% | 26µM* | 3 | 28%
N#C/C(=C\c1ccccc1)C(=O)Nc1ccccn1 | u | -1% | u | -2 | -4%
CCOc1ccc(/C=C(\C#N)C(=O)Nc2cccnc2)cc1 | u | -1% | -11% | -63* | 2%
COc1ccc(CCNC(=O)CSc2nc3ccsc3c(=O)n2Cc2ccccn2)cc1OC | x | x | x | -2 | -5%
Nc1ncnc2c1ncn2[C@@H]1O[C@H](C(=O)NCCCN2CCCC2=O)[C@@H](O)[C@H]1O | x | x | x | 2 | x
CC1=C(C(=O)N(C)C)CC(CC(=O)NC(c2ccccc2)c2ccccc2)C(=O)N1Cc1ccccc1 (stereo not drawn) | x | x | x | -48* | -8%
CC(O)CN(CC(C)O)c1ccc2c(c1)Cc1cc([N+](=O)[O-])ccc1-2 (stereo not drawn) | 18µM* | x | u | -1 | -9%
COc1ccc(C(=O)C[n+]2ccc3c(c2)nc(-c2ccccc2)n3C)cc1 | 0% | 1% | 11% | -36* | -17%
CCOC(=O)CSc1nc2sc3c(c2c(=O)n1-c1ccccc1)CCN(C(C)C)C3 | u | -14% | 18µM* | 0 | 61%
O=C(Nc1cccc(C(=O)N2CCCCC2)c1)C1CC1 | 1% | x | 10% | -48* | 5%
CN(C)c1nc(-c2ccccc2)ncc1S(=O)(=O)c1ccccc1 | 5% | -4% | -10% | -32* | 14%
CCN(CC)c1nc(-c2ccccc2)ncc1S(=O)(=O)c1ccc(C)cc1 | -3% | 1% | 1% | 0 | -20%
CCc1nc2ccc(C(=O)Nc3cccc(NS(C)(=O)=O)c3)cn2c1N(CCC(C)C)CCN(C)C | x | x | x | 2 | x

Additional structures.
Compound | Rango-impB inh | MmCpn inh | Rango dissoc inh | CCT chaperon mod | Integrin act MD
C(=C\c1ccc2ccccc2n1)/c1ccccc1 | 0% | 1% | 9% | -1 | -43%
Oc1ccc(/C=C/c2ccc3ccccc3n2)cc1 | u | -18% | 18µM* | -1 | -24%
COc1ccc(-c2cn3cccnc3n2)cc1NC(=O)Nc1cc(C)ccc1C | x | 0% | x | x | x
S=C(c1cn(CCOc2cccc3ccccc23)c2ccccc12)N1CCCC1 | u | 50µM* | u | -1 | -36%
CC(O)(c1ccccc1)c1nc(-c2ccncc2)cs1 (stereo not drawn) | x | x | x | -2 | x
OCc1cn(Cc2ccc(O)c3ncccc23)cn1 | x | 1% | x | x | x
CCc1nc2c(OCc3cc(Cl)cc(Cl)c3)cccn2c1N(C=O)Cc1ccc(OC)cc1 | x | x | x | 1 | x
Cc1ccc(S(=O)(=O)N2CCC(=O)N([C@H](COCc3ccc(Cl)cc3)C(C)C)CC2)cc1 | x | x | x | -1 | x
COc1ccc(Cc2nnc(NC(=O)CSc3ccc(C)cc3)s2)cc1 | u | 0% | -14% | -41* | -8%
O=C1CCCC[C@@H](CO)[C@H](O)C[C@H](c2ccccc2)O1 | x | x | x | -1 | x
COc1cc2c(cc1OC)C(NC(=O)C(F)(F)F)C/C2=N\O (stereo not drawn) | u | -3% | -2% | -1 | 11µM*
Cc1ccc2c(C)c(C(=O)NCCN3CCCC(O)C3)oc2c1C (stereo not drawn) | 5% | 1% | 15% | -38* | -4%

Carrying on.
Compound | Rango-impB inh | MmCpn inh | Rango dissoc inh | CCT chaperon mod | Integrin act MD
NS(=O)(=O)c1ccc(NC(=O)c2cc(-c3ccccc3O)n[nH]2)cc1 | 2% | 2% | 24% | 2 | 10µM*
Cc1cc(=O)oc2cc(NS(=O)(=O)c3ccc(F)cc3)ccc12 | u | -12% | u | 0 | -9%
Cc1cc(=O)oc2cc(NS(=O)(=O)c3ccccc3)ccc12 | -11% | -9% | 16µM* | 0 | 9%
CCc1nc2c(OCC(=O)c3ccc(F)cc3)cccn2c1N(C)C(=O)C(C)C | x | x | x | 1 | x
CCc1nc2ccc(C(=O)NCCc3ccccn3)cn2c1N(CC)CCOC | x | x | x | -2 | x
Cc1oc(-c2ccccc2F)nc1CN1CCC(C(=O)NCCC2=CCCCC2)CC1 | 1% | 0% | 25% | -52* | -7%
COc1ccc(CC(=O)NNC(=O)COc2ccc3ccccc3c2)cc1 | -3% | 40µM* | -13% | 0 | -26%
C[C@@H]1ON(C)[C@H]2C[C@H]3c4[nH]c5ccc(-c6ccc7c(c6)OCO7)cc5c4CCN3C[C@@H]12 | x | x | x | -73* | -13%
COCCCN1C(=O)C(=O)/C(=C(/O)c2ccc(S(=O)(=O)N3CCCCC3)cc2)C1c1cccc(OC)c1 (stereo not drawn) | 1% | -2% | 5% | -84* | 6%
Cc1c(C)n(C)c2ccc(C(=O)NCCN3CCOCC3)cc12 | 1% | 0% | -7% | 0 | 5%
CCn1c(C)c(C)c2cc(C(=O)NCCN3CCOCC3)ccc21 | u | -6% | 0% | -40* | -22%
Cc1ccc(/C=c2\s/c(=C(/C#N)C(=O)N3CCCC3)n(Cc3ccco3)c2=O)s1 | u | 0% | 8.2µM* | 2 | -7%

More results follow.
Compound | Rango-impB inh | MmCpn inh | Rango dissoc inh | CCT chaperon mod | Integrin act MD
COc1cc(/C=c2\s/c(=C(/C#N)C(=O)N3CCCC3)n(-c3ccccc3)c2=O)ccc1O | u | -3% | u | -1 | -21%
CN(C)c1ncnc2c1ncn2[C@H]1CN(C2CCCC2)C[C@@H](CO)O1 | x | x | x | 0 | x
C=CCn1c(SCCOc2ccccc2)nnc1C(C)NC(=O)c1ccccc1 (stereo not drawn) | -1% | 2% | -10% | -1 | 1%
C=CCn1c(SCC(=O)N2CCOCC2)nnc1C(C)NC(=O)c1ccccc1 (stereo not drawn) | 0% | 2% | 1% | -47* | -12%

Single entries from the entries so far.
CCT chaperon mod with C=CCn1c(SCCOc2ccccc2)nnc1C(C)NC(=O)c1ccccc1 (stereo not drawn) = -1
Integrin act MD with COc1cc(/C=c2\s/c(=C(/C#N)C(=O)N3CCCC3)n(-c3ccccc3)c2=O)ccc1O = -21%
